# This is a selection; strong and weak results do not stand in their true shares. Some salts or complexes appear as unconnected parts, following the source record. Active and inactive are the calls of the source. Cut-off read from the data, not from the text of the source: active = activation above about 47%; inactive = the rest.
# Protein sequences, listed by entry. Tags and fused reporters are not part of them.
# UniProt P35869, whole entry: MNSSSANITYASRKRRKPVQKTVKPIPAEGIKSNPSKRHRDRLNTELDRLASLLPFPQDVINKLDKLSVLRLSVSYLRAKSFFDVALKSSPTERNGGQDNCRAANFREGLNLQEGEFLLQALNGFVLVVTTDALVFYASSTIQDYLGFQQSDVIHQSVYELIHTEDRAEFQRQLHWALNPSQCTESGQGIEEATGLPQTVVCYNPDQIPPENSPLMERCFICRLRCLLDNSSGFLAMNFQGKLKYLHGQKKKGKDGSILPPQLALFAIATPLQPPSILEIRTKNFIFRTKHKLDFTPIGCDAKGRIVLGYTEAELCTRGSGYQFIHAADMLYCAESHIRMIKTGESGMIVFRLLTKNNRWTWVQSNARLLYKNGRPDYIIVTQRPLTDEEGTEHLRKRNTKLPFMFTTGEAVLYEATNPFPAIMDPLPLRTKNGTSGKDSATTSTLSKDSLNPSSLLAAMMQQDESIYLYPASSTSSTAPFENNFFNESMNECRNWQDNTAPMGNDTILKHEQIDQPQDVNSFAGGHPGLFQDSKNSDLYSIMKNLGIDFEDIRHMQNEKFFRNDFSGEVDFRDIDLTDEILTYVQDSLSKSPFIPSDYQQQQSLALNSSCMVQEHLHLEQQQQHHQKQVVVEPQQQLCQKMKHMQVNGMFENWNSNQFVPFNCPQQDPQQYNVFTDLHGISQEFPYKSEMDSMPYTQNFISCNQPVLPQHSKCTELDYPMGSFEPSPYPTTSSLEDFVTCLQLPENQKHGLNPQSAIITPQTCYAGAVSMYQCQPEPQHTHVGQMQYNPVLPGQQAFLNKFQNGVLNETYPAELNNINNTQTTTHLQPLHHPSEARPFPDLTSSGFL
# Molecular target: Aryl hydrocarbon receptor (Homo sapiens) (UniProt P35869)
# Test: AHR activators, primary screen, cell-based, luminescence, luciferase reporter, human (AID 2796);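 note: 0% = vehicle wells and 100% = reference agonist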
# Settings: AHR-responsive luciferase reporter cells, at 5 µM, stronger effect = higher value
row,SMILES,activation
1,Cc1cc(C)cc(OP(C)(=O)Nc2ccc(C)cc2C)c1 (stereo unspecified),inactive: 4.34%
2,COc1ccccc1OP(C)(=O)Nc1cccc(Br)c1 (stereo unspecified),inactive: -1.92%
3,Cc1ccc(C)c(NP(C)(=O)Oc2ccccc2)c1 (stereo unspecified),inactive: -0.47%
4,CP(=O)(Nc1cccc(Br)c1)Oc1ccccc1 (stereo unspecified),inactive: 0.89%
5,Cc1cc(C)cc(OP(C)(=O)Nc2ccccn2)c1 (stereo unspecified),inactive: -1.19%
6,O=[N+]([O-])c1cc([N+](=O)[O-])c(-n2nnc3ccccc32)c([N+](=O)[O-])c1,inactive: -0.92%
7,Cc1nc2ccc3ccccc3c2s1.O=[N+]([O-])c1cc([N+](=O)[O-])c(O)c([N+](=O)[O-])c1,inactive: 0.87%
8,O=[N+]([O-])c1cc([N+](=O)[O-])c(-c2cnn(-c3ccccc3)c2)c([N+](=O)[O-])c1,inactive: 1.6%
9,O=[N+]([O-])c1cc([N+](=O)[O-])c(Nc2nnnn2CCO)c([N+](=O)[O-])c1,inactive: 1.3%
10,CC1=C2N=C(C=C3N=C(C(C)=C4[N-][C@@](C)([C@@H]5N=C1[C@](C)(CCC(=O)NC[C@@H](C)OP(=O)([O-])O[C@H]1[C@@H](O)[C@@H](n6cnc7cc(C)c(C)cc76)O[C@@H]1CO)[C@H]5CC(N)=O)[C@@](C)(CC(N)=O)[C@@H]4CCC(N)=O)[C@@](C)(CC(N)=O)[C@@H]3CCC(N)=O)C(C)(C)[C@@H]2CCC(N)=O.[C-]#N.[Co+3],inactive: 5.37%
11,CCOC(=O)C(CC)C1=NC(C)(C)Cc2ccccc21.O=[N+]([O-])c1cc([N+](=O)[O-])c(O)c([N+](=O)[O-])c1 (stereo unspecified),inactive: 1.37%
12,CP(=O)(Nc1ccc(SC(F)(F)F)cc1)Oc1ccccc1 (stereo unspecified),inactive: -0.53%
13,CCCOc1ccc(NP(C)(=O)Oc2ccc(Cl)cc2)cc1 (stereo unspecified),inactive: 7.64%
14,CN1CCCCC1COC(=O)C1(O)c2ccccc2CCc2ccccc21 (stereo unspecified),inactive: 0.29%
15,COc1ccccc1OP(C)(=O)Nc1c(C)cccc1C (stereo unspecified),inactive: 1.42%
16,CN(C)CCOC(=O)C(O)(c1ccccc1)C1CCCCC1 (stereo unspecified),inactive: -2.71%
17,COc1ccc(NP(C)(=O)Oc2ccccc2OC)cc1 (stereo unspecified),inactive: 1.35%
18,COc1ccc(OP(C)(=O)Nc2cccc(Br)c2)cc1 (stereo unspecified),inactive: -0.31%
19,O=[N+]([O-])c1cc([N+](=O)[O-])c(NCC2CCS(=O)(=O)C2)c([N+](=O)[O-])c1 (stereo unspecified),inactive: -3.27%
20,CCOP(C)(=S)SCC(=O)NC(C)(CC)C(=O)O (stereo unspecified),inactive: -4.21%
21,CP(=O)(Nc1ccc(SC(F)(F)F)cc1)Oc1ccc(F)cc1 (stereo unspecified),inactive: 2.22%

row,SMILES,activation
1,Cc1ccccc1NP(C)(=O)Nc1ccccc1C,inactive: 3.5%
2,CP(=O)(Nc1ccc2c(c1)OCCO2)Oc1ccccc1 (stereo unspecified),inactive: 12.3%
3,CP(=O)(Nc1ccccc1F)Oc1ccccc1 (stereo unspecified),inactive: 1.13%
4,CC(C)c1ccc(OP(C)(=O)Nc2ccc(SC(F)(F)F)cc2)cc1 (stereo unspecified),inactive: 2.51%
5,COc1ccc2c(c1O)-c1c(O)c(OC)cc3c1[C@H](C2)[N+](C)(C)CC3.O=[N+]([O-])c1cc([N+](=O)[O-])c([O-])c([N+](=O)[O-])c1[O-],inactive: 0.24%
6,O=C(OC1CN2CCC1CC2)c1ccc([N+](=O)[O-])cc1 (stereo unspecified),inactive: 1.53%
7,O=C(OCCN1CCN(CCOCc2ccccc2)CC1)C(O)(c1ccccc1)c1ccccc1,inactive: -5.11%
8,CCOC(=O)c1ccc(NP(C)(=O)Oc2ccc(F)cc2)cc1 (stereo unspecified),inactive: -1.28%
9,COc1ccc(OP(C)(=O)Nc2ccc(SC(F)(F)F)cc2)cc1 (stereo unspecified),inactive: 7.07%
10,CP(=O)(Nc1ccccc1)Oc1ccc(F)cc1 (stereo unspecified),inactive: -1.23%
11,CCCCCOc1ccc(NP(C)(=O)Oc2ccc(Cl)cc2Cl)cc1 (stereo unspecified),inactive: 0.53%
12,O=[N+]([O-])c1cc([N+](=O)[O-])c(OC2CCCCC2O)c([N+](=O)[O-])c1 (stereo unspecified),inactive: 1.04%
13,CCN(CC)CCCOC(=O)C(O)(c1ccccc1)C1CCCCC1 (stereo unspecified),inactive: -0.25%
14,COc1ccccc1OP(C)(=O)Nc1ccc(C)c(C)c1 (stereo unspecified),inactive: 12.7%
15,COc1ccc(OP(C)(=O)Nc2ccccc2Br)cc1 (stereo unspecified),inactive: 0.34%
16,Cc1cc(C)cc(OP(C)(=O)Nc2cccc(C(F)(F)F)c2)c1 (stereo unspecified),inactive: 6.13%
17,CP(=O)(OCCOc1ccccc1)OCCOc1ccccc1,inactive: -2.45%
18,CP(=O)(Nc1ccc(Cl)cc1Cl)Oc1ccccc1 (stereo unspecified),inactive: 1.74%
19,Cc1nc2ccc3ccccc3c2o1.O=[N+]([O-])c1cc([N+](=O)[O-])c(O)c([N+](=O)[O-])c1,inactive: 11.2%
20,COc1ccc(OP(C)(=O)Nc2ccccn2)cc1 (stereo unspecified),inactive: 0.54%
21,CN(C)CCOC(=O)C(O)(c1ccccc1)C1CCCC1 (stereo unspecified),inactive: -0.96%

row,SMILES,activation
1,COc1ccccc1OP(C)(=O)Nc1ccc(Br)cc1 (stereo unspecified),inactive: 7.71%
2,CP(=O)(Nc1ccccn1)Oc1ccccc1 (stereo unspecified),inactive: -0.5%
3,COc1ccccc1OP(C)(=O)Nc1ccc(C)cc1C (stereo unspecified),inactive: 16.7%
4,CCc1ccc(OP(C)(=O)O)cc1,inactive: -2.56%
5,O=[N+]([O-])c1cc([N+](=O)[O-])c(Nc2ccccn2)c([N+](=O)[O-])c1,inactive: 1.92%
6,Cc1c(NP(C)(=O)Oc2ccc(C(C)C)cc2)c(=O)n(-c2ccccc2)n1C (stereo unspecified),inactive: -1.08%
7,COc1ccccc1OP(C)(=O)Nc1c(C)n(C)n(-c2ccccc2)c1=O (stereo unspecified),inactive: 1.64%
8,O=C(OCCCN1CCCC1)C(O)(c1ccccc1)C1CCCCC1 (stereo unspecified),inactive: -1.55%
9,CP(=O)(Oc1ccccc1)N1CCOC1=O (stereo unspecified),inactive: 1.05%
10,CCc1ccc(OP(C)(=O)Nc2cccnc2)cc1 (stereo unspecified),inactive: 1.78%
11,CCN(CC)CC(O)COC(=O)C(O)(c1ccccc1)C1CCCCC1 (stereo unspecified),inactive: 3.18%
12,COc1ccc(OP(C)(=O)Nc2ccc(Br)cc2)cc1 (stereo unspecified),inactive: 6.35%
13,CN(C)C(=O)c1c([N+](=O)[O-])cc([N+](=O)[O-])cc1[N+](=O)[O-],inactive: 1.17%
14,CC(C)(C)c1ccc(OP(C)(=O)O)cc1,inactive: 2.94%
15,COc1ccccc1OP(C)(=O)Nc1ccccc1Br (stereo unspecified),inactive: 3.23%
16,CP(=O)(Nc1ccc(Cl)cc1)Oc1ccc(F)cc1 (stereo unspecified),inactive: -0.13%
17,CCOC(=O)c1ccc(NP(C)(=O)Oc2ccc(Cl)cc2)cc1 (stereo unspecified),inactive: 0.96%
18,CP(=O)(OC12CC3CC(CC(C3)C1)C2)OC12CC3CC(CC(C3)C1)C2,inactive: -0.36%
19,Nc1ccc2c(ccc3cccnc32)n1.O=[N+]([O-])c1cc([N+](=O)[O-])c(O)c([N+](=O)[O-])c1,inactive: 10.6%
